Rows were chosen to be rich in hits. Some 16% of all compounds tested hit in one or more screens of this group.
miR-21 reporter = miR-21 reporter, rising signal; HeLa miR-21 FLuc reporter, luciferase, 48 h; Potency, µM (doses to about 38.3 µM); 340,000 tested, under 10 active; AID 2288; active = well fitted rising curve with a large enough effect; inconclusive = small, poorly fitted or top-dose-only effect; inactive = no such curve, though single readings can be large or run the other way;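 further: miR-21 action dims this reporter so a rising signal means less miR-21 action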
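HeLa cells endogenously expressing miR-21, stably carrying CMV-driven firefly luciferase with a downstream miR-21 binding site, 2000 cells/well. Titrations up to approximately 40 uM, 48 hours; luciferase luminescence read.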
DT40 TDP1 no CPT = qHTS for Inhibitors of human tyrosyl-DNA phosphodiesterase 1 (TDP1): qHTS in cells in absence of CPT | DT40 Tdp1-/- hTDP1 cells, no CPT, ATP luminescence, 48 h | Potency, µM (series often up to 46.2 µM), most hits filed as inhibitors | 420,000 compounds, 15% hits | AID 686978, 2013; further: nearly all actives have a fitted effect of over 55% in size
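Stably hTDP1-transfected Tdp1-null chicken DT40 cells were treated with library compounds minus camptothecin and grown for at least 48 hr at 37 °C, after which cellular ATP was quantified by luminescence.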
TDP1 block = TDP1 (human) enzyme inhibition; Q9NUW8; recombinant TDP1, AlphaScreen DNA substrate cleavage; Potency, µM (top dose mostly 130 µM), hits mostly inhibitors; 350,000 compounds, 0.28% hits; further: nearly all actives have a fitted effect of over 40% in size
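E. coli-derived human Tdp1, 1 nM final. Cpd preinc 15 min RT; substrate 15 nM final, 5 min RT; AS bead mix 10 ug/ml final, 10 min RT. Signal loss = tyrosine-FITC cleavage. No-enzyme wells = max signal.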
uPA surface inh = inhibitors of cell surface uPA generation. cell surface uPA generation assay, qHTS. Potency, µM (titrated, usually from 38.3 µM), hits mostly inhibitors. 330,000 compounds, 0.31% hits; active means well fitted inhibition curve with a large enough effect; inconclusive means small, poorly fitted or top-dose-only effect; inactive means no such curve, though single readings can be large or run the other way; tested in mouse RAW 264.7 cells; further: nearly all actives have a fitted effect of over 55% in size
TDP1 cell CPT = DT40-hTDP1 cell growth loss with CPT | chicken DT40 Tdp1-/-;hTDP1 cells + 20 nM CPT, ATP luminescence, 48 h | Potency, µM (doses to about 46.2 µM), actives largely listed as inhibitors | 420,000 compounds, 12% hits | AID 686979; further: nearly all actives have a fitted effect of over 55% in size
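Cell growth measured by CellTiter-Glo luminescence after a minimum 48 h, 37 C compound exposure with 20 nM CPT in Tdp1-knockout DT40 cells stably expressing hTDP1, seeded 400/well; qHTS titration format.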
Large screens that a line does not name were inactive. Unless noted, the call rests on the fitted dose curve; in most records, active means well fitted curve in the direction sought with a large enough effect; inconclusive means small, poorly fitted or top-dose-only effect, or another doubt; inactive means no such curve, though single readings can be large; an effect the other way counts as inactive or inconclusive.

CCC1(C)CC2(CCCN(CCC(O)(c3ccccc3)c3ccccc3)C2)CCO1 (stereo not drawn)	DT40 TDP1 no CPT 15µM, TDP1 cell CPT inconclusive (no result: TDP1 block)
CC(C)c1ccc2occ(CC(=O)Nc3cccc(C(F)(F)F)c3)c2c1	miR-21 reporter inconclusive, DT40 TDP1 no CPT 29µM, TDP1 cell CPT inconclusive (no result: uPA surface inh)
CCOc1ccccc1NC(=O)Cc1noc2ccc(C)cc12	DT40 TDP1 no CPT inconclusive (no result: uPA surface inh)
CCOc1ccccc1NC(=O)Cc1coc2ccc(C)cc12	DT40 TDP1 no CPT 16µM, TDP1 cell CPT inconclusive
Cc1ccc2occ(CC(=O)Nc3ccc(Cl)c(C(F)(F)F)c3)c2c1	miR-21 reporter inconclusive, DT40 TDP1 no CPT 16µM, TDP1 cell CPT 21µM (no result: uPA surface inh)
Cc1ccc2occ(CC(=O)Nc3ccc(S(N)(=O)=O)cc3)c2c1	none (no result: uPA surface inh)
CCOC(=O)c1ccc(CN(Cc2ccc(Br)cc2)S(=O)(=O)c2cccc(C(F)(F)F)c2)cc1	DT40 TDP1 no CPT inconclusive, TDP1 cell CPT inconclusive (no result: uPA surface inh)
O=C(c1sc2ccccc2c1Cl)N1CCN(c2ccccn2)CC1	none
Cc1ccc(NC(=O)CSc2nnc(-c3ccc([N+](=O)[O-])cc3)o2)c(C)c1	none (no result: uPA surface inh)
COc1ccc2c(c1)CC(NC(=O)Nc1cc(Cl)ccc1OC)CO2 (stereo not drawn)	DT40 TDP1 no CPT inconclusive, TDP1 cell CPT 23µM (no result: uPA surface inh)
COc1ccc(NC(=O)NC2COc3ccccc3C2)c(OC)c1 (stereo not drawn)	none (no result: uPA surface inh)
CC(=O)c1ccc(OCc2cc(C(=O)N(C)C(C)c3nccs3)no2)cc1 (stereo not drawn)	DT40 TDP1 no CPT inconclusive, TDP1 cell CPT 16µM (no result: TDP1 block)
CC(=O)c1ccc(OCc2cc(C(=O)N3CCCCCCC3)no2)cc1	DT40 TDP1 no CPT 4.1µM, TDP1 cell CPT inconclusive
CC(=O)c1ccc(OCc2cc(C(=O)N(C)C(C)c3ccon3)no2)cc1 (stereo not drawn)	DT40 TDP1 no CPT 18µM, TDP1 cell CPT inconclusive (no result: miR-21 reporter, TDP1 block)
CC(=O)c1cccc(OCc2cc(C(=O)N(C)C(C)c3ccccn3)no2)c1 (stereo not drawn)	DT40 TDP1 no CPT inconclusive, TDP1 cell CPT inconclusive
O=C(NCc1ccco1)c1cc(-c2ccncc2)nc2ccccc12	none (no result: uPA surface inh)
COc1cccc(-c2cc(C(=O)NCc3ccco3)c3ccccc3n2)c1	DT40 TDP1 no CPT inconclusive, TDP1 cell CPT 12µM (no result: TDP1 block)
COc1ccc(-c2noc(CCCC(=O)NCc3ccco3)n2)cc1OC	DT40 TDP1 no CPT inconclusive
COc1ccc(-c2cc(C(=O)NCc3ccco3)c3ccccc3n2)cc1OC	DT40 TDP1 no CPT 18µM, TDP1 cell CPT inconclusive (no result: miR-21 reporter, TDP1 block)
COc1ccc(N=c2oc3c(OC)cccc3cc2C(=O)NCc2ccco2)cc1OC	DT40 TDP1 no CPT 7.3µM, TDP1 cell CPT 12µM (no result: uPA surface inh)
COc1ccc(-c2noc(-c3ccccc3C(=O)NCc3ccco3)n2)cc1OC	DT40 TDP1 no CPT 15µM, TDP1 cell CPT inconclusive
CCn1cc(S(=O)(=O)NCc2ccc3c(c2)OCO3)cn1	none
COc1ccc(NC(=O)c2cc(C(C)=O)n3ccccc23)cc1Cl	DT40 TDP1 no CPT inconclusive, TDP1 cell CPT inconclusive (no result: uPA surface inh)
CCCNC(=O)C1(C)CCCN(Cc2ccc(-n3ccnc3)cc2)C1 (stereo not drawn)	none (no result: miR-21 reporter, TDP1 block, uPA surface inh)
COc1cc2cc3c(N)c(C(=O)NCc4ccco4)sc3nc2cc1OC	DT40 TDP1 no CPT 15µM, TDP1 cell CPT 23µM
COc1ccc(-c2cc(C(=O)Nc3cccc(S(=O)(=O)NCc4ccco4)c3)c3ccccc3n2)cc1OC	DT40 TDP1 no CPT 6.5µM, TDP1 cell CPT 10µM
COc1ccc(-c2noc(-c3ccccc3-c3ccccc3)n2)cc1OC	DT40 TDP1 no CPT 26µM, TDP1 cell CPT inconclusive
Cc1ccc2nc3sc(C(=O)NCc4ccco4)c(N)c3cc2c1	none
CS(=O)c1ccccc1-c1nc(-c2cccc(Cl)c2)no1 (stereo not drawn)	DT40 TDP1 no CPT 16µM, TDP1 cell CPT inconclusive
COc1ccc(-c2noc(-c3ccc(C)cc3Cl)n2)cc1OC	none (no result: uPA surface inh)
OCC1(Cc2ccccc2)CCCN(C2CCCC2)C1 (stereo not drawn)	none
COc1ccc(OC)c(C(=O)N2CCC(n3nccc3NC(=O)CC(C)C)CC2)c1	uPA surface inh inconclusive
COc1ccc(C(=O)N/N=C/c2ccc(OC)c(CSc3ccccn3)c2)cc1	none
COc1ccc(/C=N/NC(=O)c2cccnc2)cc1CN1CCCc2ccccc21	DT40 TDP1 no CPT 12µM, TDP1 cell CPT inconclusive
COc1ccc(/C=N/NC(=O)c2cccnc2)cc1COc1ccc([N+](=O)[O-])cc1	DT40 TDP1 no CPT 2.6µM, TDP1 cell CPT 2.6µM
COc1ccc(/C=N/NC(=O)c2cccnc2)cc1CSc1ccccn1	DT40 TDP1 no CPT 6.5µM, TDP1 cell CPT 6.5µM (no result: TDP1 block)
COc1ccc(NC(=O)COc2ccc(/C=N/NC(=O)c3cccnc3)cc2OC)cc1	DT40 TDP1 no CPT 23µM, TDP1 cell CPT 18µM
COc1ccc(/C=N\NC(=O)c2ccc([N+](=O)[O-])cc2)cc1COc1c(F)c(F)cc(F)c1F	DT40 TDP1 no CPT inconclusive, TDP1 cell CPT inconclusive
COc1ccc(C(=O)N/N=C/c2ccc(OC)c(CN3CCCc4ccccc43)c2)cc1	DT40 TDP1 no CPT inconclusive
COc1cc(/C=N/NC(=O)c2cccnc2)ccc1OCC(=O)Nc1ccccc1Cl	none
COc1cc(/C=N/NC(=O)c2cccnc2)ccc1OC(=O)c1ccc([N+](=O)[O-])cc1	TDP1 block 45µM
CCOc1cc(N2CCOCC2)c(OCC)cc1NC(=O)COC(=O)COc1ccc(C#N)cc1	none
O=C(c1ccc2c(c1)N(Cc1ccccc1)C(=O)c1ccccc1S2(=O)=O)N1CCN(Cc2ccccc2)CC1	DT40 TDP1 no CPT 7.3µM, TDP1 cell CPT 10µM (no result: uPA surface inh)
CCN1CCN(C(=O)c2ccc3c(c2)N(Cc2cc(C)ccc2C)C(=O)c2ccccc2S3(=O)=O)CC1	none (no result: uPA surface inh)
O=C(c1cc2c(s1)-c1ccccc1S(=O)(=O)C2)N1CCN(Cc2ccccc2)CC1	DT40 TDP1 no CPT 16µM, TDP1 cell CPT 18µM
O=C(c1ccc2c(c1)N(Cc1cccc(Cl)c1)C(=O)c1ccccc1S2(=O)=O)N1CCC(Cc2ccccc2)CC1	DT40 TDP1 no CPT 4.1µM, TDP1 cell CPT 4.1µM (no result: uPA surface inh)
O=C(NCCN1CCCC1)c1ccc2c(c1)N(Cc1cccc(Cl)c1)C(=O)c1ccccc1S2(=O)=O	uPA surface inh inconclusive, TDP1 cell CPT inconclusive
O=C(NCC(=O)N1CCC(Cc2ccccc2)CC1)c1ccc(Cl)cc1	DT40 TDP1 no CPT inconclusive, TDP1 cell CPT 16µM
CCCN1CCN(C(=O)c2cc3c(s2)-c2ccccc2S(=O)(=O)C3)CC1	none (no result: DT40 TDP1 no CPT, uPA surface inh, TDP1 cell CPT)
c1ccc(-c2cc(-c3nnc4n3N=C(c3ccc5ccccc5c3)CS4)[nH]n2)cc1	DT40 TDP1 no CPT inconclusive, uPA surface inh inconclusive, TDP1 cell CPT inconclusive
CN1C(=O)NC(c2ccc(O)cc2)C2=C1CN(c1ccccc1)C2=O (stereo not drawn)	DT40 TDP1 no CPT inconclusive, TDP1 cell CPT inconclusive

Screening data as filed in PubChem.
